Biological target: Amine oxidase [flavin-containing] B (Homo sapiens, UniProt P27338)
Assay: Inhibition of recombinant human MAO-B expressed in baculovirus infected BTI-TN- 5B1-4 insect cells using kynuramine as substrate preincubated for 10 mins in presence of substrate followed by enzyme addition and measured every minute for 30 mins by spectrophotometry analysis
Type: cell-based

By UniProt entry, the sequences of proteins in these tests, tags left out.
UniProt P27338, whole entry: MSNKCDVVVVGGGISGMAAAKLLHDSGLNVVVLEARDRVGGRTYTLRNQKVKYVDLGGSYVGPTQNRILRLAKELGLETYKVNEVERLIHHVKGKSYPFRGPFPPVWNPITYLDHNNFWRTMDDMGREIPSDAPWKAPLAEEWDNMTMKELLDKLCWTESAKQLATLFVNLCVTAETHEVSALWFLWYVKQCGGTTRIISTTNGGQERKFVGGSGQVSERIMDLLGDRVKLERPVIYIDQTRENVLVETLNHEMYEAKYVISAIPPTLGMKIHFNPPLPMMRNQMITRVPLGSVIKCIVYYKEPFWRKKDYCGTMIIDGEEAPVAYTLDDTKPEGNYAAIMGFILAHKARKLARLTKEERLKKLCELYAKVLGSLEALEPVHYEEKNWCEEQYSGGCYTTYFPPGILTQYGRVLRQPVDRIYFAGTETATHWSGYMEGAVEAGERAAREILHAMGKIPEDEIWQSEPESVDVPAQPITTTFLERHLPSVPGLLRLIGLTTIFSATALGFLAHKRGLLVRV

IC50: 18.8 nM
Structure (SMILES): Cc1ccc(NC(=O)c2cc3ccccc3oc2=O)cc1C
